This passage reports inhibition results from PubChem BioAssay AID1325 (NMMLSC, 2008).

The chains behind the UniProt entries cited, without tags or fusion partners.
UniProt Q9UNQ0, whole entry: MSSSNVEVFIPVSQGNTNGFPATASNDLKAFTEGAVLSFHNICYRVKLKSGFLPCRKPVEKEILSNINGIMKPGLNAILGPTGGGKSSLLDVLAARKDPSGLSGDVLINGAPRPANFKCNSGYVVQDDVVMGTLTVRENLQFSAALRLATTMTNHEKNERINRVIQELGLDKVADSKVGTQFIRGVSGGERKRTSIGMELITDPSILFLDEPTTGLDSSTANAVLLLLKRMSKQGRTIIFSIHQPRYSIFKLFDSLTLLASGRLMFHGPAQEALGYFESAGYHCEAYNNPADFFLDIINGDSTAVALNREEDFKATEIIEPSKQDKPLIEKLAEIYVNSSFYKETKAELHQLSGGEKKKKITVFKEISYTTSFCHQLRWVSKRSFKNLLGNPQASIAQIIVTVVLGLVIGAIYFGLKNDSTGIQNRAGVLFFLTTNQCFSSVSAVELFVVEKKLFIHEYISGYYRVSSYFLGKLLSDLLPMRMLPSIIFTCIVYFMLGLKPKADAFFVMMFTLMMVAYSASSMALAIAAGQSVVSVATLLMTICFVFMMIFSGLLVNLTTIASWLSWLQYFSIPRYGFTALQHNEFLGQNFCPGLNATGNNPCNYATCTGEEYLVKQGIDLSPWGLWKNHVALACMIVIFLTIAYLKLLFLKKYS

SMILES strings stand for the structures. The list shows a part of the results, in another mix than the full data. Active and inactive are the calls of the source.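 How the source made its calls: active means inhibition above 80%; inactive means the rest.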

This assay concerns the target Broad substrate specificity ATP-binding cassette transporter ABCG2 (Homo sapiens) (UniProt Q9UNQ0). Nature of the assay: ABCG2 efflux pump inhibitors, primary screen, multiplex with ABCB1, IgMXP3 cells, flow cytometry (AID 1325).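 Further: 0% = DMSO and 100% = nicardipine control wells.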 The following applies: JC-1 efflux, at 6.6 µM, stronger effect = higher value. (In general: A flow cytometer gives signals particle by particle.)
Usually inhibition stands for the drop in the measured response relative to a control, in per cent. As for `COc1ccc(OP(C)(=O)Nc2ccccn2)cc1` (stereo not drawn), the inhibition is inactive: 0.02%. As for `CN(C)CCOC(=O)C(O)(c1ccccc1)C1CCCC1` (stereo not drawn), the figure is inactive: -0.47%. For the compound `COc1ccccc1OP(C)(=O)Nc1ccc(C)cc1C` (stereo not drawn), the inhibition was inactive: 3.27%. As to `CP(=O)(Nc1ccccn1)Oc1ccccc1` (stereo not drawn), the inhibition was inactive: 10.3%.

`CCc1ccc(OP(C)(=O)O)cc1`: the inhibition is inactive: -0.27%. With `O=[N+]([O-])c1cc([N+](=O)[O-])c(Nc2ccccn2)c([N+](=O)[O-])c1` the figure was inactive: 0.66%; with `Cc1c(NP(C)(=O)Oc2ccc(C(C)C)cc2)c(=O)n(-c2ccccc2)n1C` (stereo not drawn), inactive: 0.85%. As for `COc1ccccc1OP(C)(=O)Nc1ccc(C)c(C)c1` (stereo not drawn), the figure is inactive: 0.63%.

In the case of `COc1ccc(OP(C)(=O)Nc2ccccc2Br)cc1` (stereo not drawn), the inhibition is inactive: 3.53%. For the compound `Cc1cc(C)cc(OP(C)(=O)Nc2cccc(C(F)(F)F)c2)c1` (stereo not drawn), the inhibition is inactive: 23.3%. With `CP(=O)(OCCOc1ccccc1)OCCOc1ccccc1` the figure was inactive: 5.57%; with `CP(=O)(Nc1ccc(Cl)cc1Cl)Oc1ccccc1` (stereo not drawn), inactive: 8.09%; with `Cc1nc2ccc3ccccc3c2o1.O=[N+]([O-])c1cc([N+](=O)[O-])c(O)c([N+](=O)[O-])c1`, inactive: 2.06%. With `CCOC(=O)c1ccc(NP(C)(=O)Oc2ccc(Cl)cc2)cc1` (stereo not drawn), the inhibition is inactive: 26.9%. As for `CP(=O)(OC12CC3CC(CC(C3)C1)C2)OC12CC3CC(CC(C3)C1)C2`, the figure is inactive: 1.32%; as for `CCc1ccc(OP(C)(=O)Nc2cccnc2)cc1` (stereo not drawn), inactive: -0.27%.

As for `CP(=O)(Oc1ccccc1)N1CCOC1=O` (stereo not drawn), the inhibition was inactive: 0.07%.

On to `COc1ccc(OP(C)(=O)Nc2ccc(Br)cc2)cc1` (stereo not drawn), for which the inhibition is inactive: 12.1%. As for `CCN(CC)CC(O)COC(=O)C(O)(c1ccccc1)C1CCCCC1` (stereo not drawn), the figure is inactive: 1.73%; as for `CN(C)C(=O)c1c([N+](=O)[O-])cc([N+](=O)[O-])cc1[N+](=O)[O-]`, inactive: 1.03%; as for `CC(C)(C)c1ccc(OP(C)(=O)O)cc1`, inactive: 0.8%. With `COc1ccccc1OP(C)(=O)Nc1ccccc1Br` (stereo not drawn) the figure was inactive: 0.97%; with `CP(=O)(Nc1ccc(Cl)cc1)Oc1ccc(F)cc1` (stereo not drawn), inactive: 2.57%. With `CCOP(C)(=S)SCC(=O)NC(C)(CC)C(=O)O` (stereo not drawn), the inhibition is inactive: -1.93%. With `Cc1ccccc1NP(C)(=O)Nc1ccccc1C` the figure was inactive: 0.41%.

Take `CP(=O)(Nc1ccc2c(c1)OCCO2)Oc1ccccc1` (stereo not drawn): the inhibition is inactive: 9.19%.

In the case of `CN(C)CCOC(=O)C(O)(c1ccccc1)C1CCCCC1` (stereo not drawn), the inhibition is inactive: 2.55%. As for `COc1ccc(NP(C)(=O)Oc2ccccc2OC)cc1` (stereo not drawn), the figure is inactive: -0.15%; as for `COc1ccc(OP(C)(=O)Nc2cccc(Br)c2)cc1` (stereo not drawn), inactive: 14%; as for `O=[N+]([O-])c1cc([N+](=O)[O-])c(NCC2CCS(=O)(=O)C2)c([N+](=O)[O-])c1` (stereo not drawn), inactive: 3.94%. As for `CCOC(=O)c1ccc(NP(C)(=O)Oc2ccc(F)cc2)cc1` (stereo not drawn), the figure is inactive: 1.41%; as for `COc1ccc(OP(C)(=O)Nc2ccc(SC(F)(F)F)cc2)cc1` (stereo not drawn), inactive: 2.55%. As for `CP(=O)(Nc1ccccc1)Oc1ccc(F)cc1` (stereo not drawn), the figure is inactive: 1.33%.

As to `CCN(CC)CCCOC(=O)C(O)(c1ccccc1)C1CCCCC1` (stereo not drawn), the inhibition is inactive: 0.92%. As for `CP(=O)(Nc1ccccc1F)Oc1ccccc1` (stereo not drawn), the figure is inactive: 4.04%; as for `CC(C)c1ccc(OP(C)(=O)Nc2ccc(SC(F)(F)F)cc2)cc1` (stereo not drawn), inactive: 0.57%; as for `O=C(OCCN1CCN(CCOCc2ccccc2)CC1)C(O)(c1ccccc1)c1ccccc1`, inactive: 1.61%. As for `CCOC(=O)c1ccc(NP(C)(=O)Oc2cc(C)cc(C)c2)cc1` (stereo not drawn), the inhibition is inactive: 11.8%. As to `Cc1cc(C)cc(OP(C)(=O)Nc2ccc(C)cc2C)c1` (stereo not drawn), the inhibition was inactive: 0.71%. With `Cc1ccc(C)c(NP(C)(=O)Oc2ccccc2)c1` (stereo not drawn) the figure was inactive: -0.42%. As for `CP(=O)(Nc1cccc(Br)c1)Oc1ccccc1` (stereo not drawn), the figure is inactive: 10.8%. As for `Cc1cc(C)cc(OP(C)(=O)Nc2ccccn2)c1` (stereo not drawn), the figure is inactive: 31.5%. Turning to `CC1=NCCc2c1[nH]c1ccccc21.O=[N+]([O-])c1cc([N+](=O)[O-])c(O)c([N+](=O)[O-])c1`, the inhibition was inactive: 9.56%.

Consider `CP(=O)(Nc1ccc(SC(F)(F)F)cc1)Oc1ccccc1` (stereo not drawn), for which the inhibition is inactive: -1.93%. For `CCCOc1ccc(NP(C)(=O)Oc2ccc(Cl)cc2)cc1` (stereo not drawn), the inhibition was inactive: -0.11%. With `CN1CCCCC1COC(=O)C1(O)c2ccccc2CCc2ccccc21` (stereo not drawn) the figure was inactive: -0.54%; with `COc1ccccc1OP(C)(=O)Nc1c(C)cccc1C` (stereo not drawn), inactive: 0.87%. As for `O=[N+]([O-])c1cc([N+](=O)[O-])c(-n2nnc3ccccc32)c([N+](=O)[O-])c1`, the inhibition was inactive: 0%. Regarding `Cc1nc2ccc3ccccc3c2s1.O=[N+]([O-])c1cc([N+](=O)[O-])c(O)c([N+](=O)[O-])c1`, the inhibition was inactive: 14%.

Consider `Cc1cc(C)cc(OP(C)(=O)Nc2ccc(SC(F)(F)F)cc2)c1` (stereo not drawn), for which the inhibition is inactive: 12.2%. With `CP(=O)(NC(=O)Nc1ccccc1)Oc1ccccc1` (stereo not drawn) the figure was inactive: 0.66%; with `CP(=O)(Oc1ccccc1)OC(c1ccccc1)C(F)(F)F` (stereo not drawn), inactive: 3.56%; with `Cc1cccc(C)c1OP(C)(=O)Nc1ccc(SC(F)(F)F)cc1` (stereo not drawn), inactive: -0.34%. As for `CP(=O)(Nc1ccccn1)Oc1ccc(Cl)cc1` (stereo not drawn), the figure is inactive: 1.83%; as for `CCOC(=O)c1ccc(NP(C)(=O)Oc2ccc(OC)cc2)cc1` (stereo not drawn), inactive: 8.02%. With `CCOP(C)(=S)SCC(=O)NC(C)C(=O)O` (stereo not drawn) the figure was inactive: 0.3%; with `COc1ccccc1OP(C)(=O)Nc1ccccc1` (stereo not drawn), inactive: 1.41%. With `CP(=S)(Nn1cnnc1)Oc1ccccc1` (stereo not drawn), the inhibition is inactive: 2.21%.

As to `O=[N+]([O-])c1ccc2c(c1)C=Nc1ccccc1O2`, the inhibition is inactive: 2.05%. As for `Cc1cccc(C)c1OP(C)(N)=O` (stereo not drawn), the inhibition is inactive: 0.44%. For the compound `CC(C)(C)c1ccc(OP(C)(=O)Nc2ccc(SC(F)(F)F)cc2)cc1` (stereo not drawn), the inhibition was inactive: 3.02%. On to `Cc1cc(C)cc(OP(C)(N)=O)c1` (stereo not drawn), for which the inhibition is inactive: 12.5%. With `COc1ccc(OP(C)(=O)Nc2cccc(F)c2)cc1` (stereo not drawn) the figure was inactive: 2.78%; with `COc1ccccc1OP(C)(=O)Nc1cc(Cl)ccc1C` (stereo not drawn), inactive: 2.18%. As for `Cc1ccc(NP(C)(=O)Oc2ccccc2)c(C)c1` (stereo not drawn), the figure is inactive: 4.49%; as for `COc1ccccc1OP(C)(=O)Nc1ccc(C)cc1` (stereo not drawn), inactive: -3.45%; as for `CCOC(=O)c1ccc(NP(C)(=O)Oc2ccccc2)cc1` (stereo not drawn), inactive: 6.49%. As for `CCN(CC)CCCOC(=O)C(O)(c1ccccc1)c1ccccc1`, the inhibition was inactive: 3.13%.
